Source: article PMC8158687, “Xanthones Active against Multidrug Resistance and Virulence Mechanisms of Bacteria” (Antibiotics, 2021)

System: S. aureus 272123
Experiment: Efflux pump inhibition assay (real-time ethidium bromide accumulation)
Format: cell-based, Staphylococcus aureus
Conditions: compound 50 µM, EB 1 µg/mL, minute 60
Procedure: Compounds 1–20 were assessed for their capability of modulating ethidium bromide (EB) accumulation on two resistant strains. […] However, norA is a core gene of the S. aureus as a species, which means that the NorA pump occurs in all S. aureus strains.
Salmonella enterica serovar Typhimurium SE03, was used as a Gram-negative bacterium. This strain has a deletion of the acrA gene, which was predicted with the least affinity for the compounds. The aim of these studies was to perform a first screening of these compounds and their ability to modulate the efflux of EB. […] The relative fluorescence index (RFI) was calculated based on the means of relative fluorescence units, depicted in Table 2.
Compounds 1–20 were evaluated for their ability to inhibit efflux pumps in SE03 and S. aureus 272123 strains, through the real-time fluorimetry, monitoring the intracellular accumulation of EB, an efflux pump substrate. This was determined by the automated method using a CLARIOstar Plus plate reader (BMG Labtech, Ortenberg, Germany). Reserpine and CCCP were applied at 25 µM as positive controls, and the solvent DMSO was applied at 1% v/v. […] The plates were placed into the CLARIOstar plate reader, and the fluorescence was monitored at excitation and emission wavelengths of 530 nm and 600 nm every minute for one hour on a real-time basis. […]

| Structure (SMILES) | RFI ± SD (relative fluorescence index) |
| --- | --- |
| O=c1c2ccccc2oc2cc(O)c(O)cc12 [Compound 2] | −0.69 ± 0.02 ^2 |
| COc1cccc2oc3ccccc3c(=O)c12 [Compound 11] | −0.10 ± 0.06 ^1 |
